The source of these data is ChEMBL document CHEMBL4385671, “Discovery of small molecule inhibitors of human uridine-cytidine kinase 2 by high-throughput screening” (Bioorg Med Chem Lett, 2019).

Activity calls are given as the source filed them. The rule behind the calls is not given here.

This test has as its target T1, Uridine-cytidine kinase 2 (Homo sapiens) (UniProt Q9BZX2).
T1 sequence (whole entry): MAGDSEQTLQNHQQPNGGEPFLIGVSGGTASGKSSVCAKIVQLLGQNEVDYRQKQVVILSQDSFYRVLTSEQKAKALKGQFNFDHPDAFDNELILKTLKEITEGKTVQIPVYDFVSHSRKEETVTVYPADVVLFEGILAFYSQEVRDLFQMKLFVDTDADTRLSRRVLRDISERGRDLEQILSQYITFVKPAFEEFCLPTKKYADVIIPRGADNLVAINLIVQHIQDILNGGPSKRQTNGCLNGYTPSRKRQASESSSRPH
Briefly: Inhibition of UCK2 in human K562 cells assessed as inhibition of uridine salvage at 50 uM incubated for 24 hrs by 5-ethynyl-uridine incorporation assay. In kind it is cell-based. A digest of the protocol:
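K562 cells were given compound at 50 µM with 50 µM 5-ethynyl-uridine (5-EU). 5-EU incorporated into cellular RNA was quantified by click chemistry with a fluorescent probe. Dipyridamole at 20 µM served as control. Activity is reported as percent inhibition of 5-EU salvage.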

In general, inhibition refers to the relative decrease from the control value, in per cent. Consider `O=C(CSCn1[nH]nc2c(=O)nc(Cc3ccc(F)cc3)nc1-2)Nc1ccc(F)cc1`, for which the inhibition amounted to 19.3%.

Regarding `COc1cccc(NC(=O)CSCn2[nH]nc3c(=O)nc(Cc4ccc(F)cc4)nc2-3)c1`, the inhibition result is “inactive”.
